# Apparent affinities of Ab-14 variants for a coronavirus HR2 peptide

Reference: Li et al. 2023, doi:10.1038/s41467-023-39022-2. File: FLAb, binding data.

Target: peptide PDVDLGDISGINAS, taken from heptad repeat 2 (HR2) of SARS-CoV-2 spike.

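Phage display of a naive human antibody library on the peptide gave the parent. These sequences belong to a second round, designed from the earlier measurements on random variants of the parent. Their group label is 14L_En_Gen (En: ensemble of fine-tuned language models; Gen: genetic algorithm). AlphaSeq pools MATa yeast showing the antibodies with MATalpha yeast showing the peptide. Pairs that bind mate more often; barcode pairs of the diploids are counted by sequencing. Read counts were normalised to the haploid input and turned into Kd by a linear fit to BCL2-family pairs of known affinity, for each replicate. Mating was done six times.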

Each scFv is VH, a 15-residue (Gly4Ser)3 linker, VL, as in the parent Ab-14, and differs from it in the CDRs of the light chain only.
VH: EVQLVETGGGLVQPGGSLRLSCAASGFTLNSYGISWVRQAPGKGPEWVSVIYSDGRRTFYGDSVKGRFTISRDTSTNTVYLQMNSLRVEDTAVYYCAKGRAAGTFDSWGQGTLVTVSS
VL: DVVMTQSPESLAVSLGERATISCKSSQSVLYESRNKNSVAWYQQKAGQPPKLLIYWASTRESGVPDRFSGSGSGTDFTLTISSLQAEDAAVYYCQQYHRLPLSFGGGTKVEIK

The parent's light chain CDRs are KSSQSVLYESRNKNSVA, WASTRES, QQYHRLPLS; each variant's own CDRs replace them letter for letter. The read-out is the apparent dissociation constant on a log10 scale (nM): the lower, the stronger. An entry "n.d." has no value in the source: the pair was not observed among the diploids in that replicate. This suggests poor binding but is not conclusive. The parent sequence was in this pool as ten entries: three were never detected, three once, and four in most replicates, with averages from 0.34 to 2.37.

CDR-L1 | CDR-L2 | CDR-L3 | log10 Kd (nM) by replicate | empty controls
IVSQLMLWGMHAKNSIA | EAQTRYN | QQYDRLPLM | n.d. n.d. n.d. n.d. n.d. n.d. | 0/18
TISQMTSLFSQSINNVA | EVSMRES | QQYDRLPLA | 1.40 1.08 1.38 1.93 1.01 0.95 | 1/18 (3.19)
KVSEFMRGLMMRKDSIA | DNNTRSN | QQYDRLPLS | 1.57 1.58 1.49 1.06 1.53 1.36 | 0/18
MLSQMWGIGMKAKNSVA | QVSTRFE | QQYDRLPLI | 0.73 0.31 0.47 0.79 0.51 0.58 | 2/18 (2.75)
TLYGLSNSMSINKNSVA | EMTTREE | QQYDRLPLI | 2.24 2.12 2.32 1.41 1.48 2.39 | 2/18 (2.34)
MMSQVTGLGQRHRNNVA | QTETREE | QQYDRLPLV | 1.62 1.19 1.40 0.86 1.31 1.03 | 1/18 (2.91)
TISGLTNQAAMKSNSVA | NVTMRPD | QQYHRLPLS | 0.16 0.27 0.06 0.10 0.39 0.40 | 1/18 (1.99)
IVSQLMLWGYHAKNSIA | EAQMRLN | QQYDRLPLF | n.d. n.d. n.d. 2.19 n.d. n.d. | 0/18
MMSQVTALGQRHRNNVA | QTSTRED | QQYDRLPLV | 1.86 1.67 1.42 1.05 2.20 3.16 | 0/18
MVNGIMDHLSKQTNNVA | ETTTRER | QQYERLPLS | 0.06 0.25 0.40 0.22 0.21 0.35 | 0/18
MMSQVTGMGSRQRNNVA | QTETREP | QQYDRLPLI | 1.79 1.76 1.43 1.77 2.66 2.03 | 3/18 (2.04)
KLSSTSGMEHVSRNSVA | ELVTRMS | QQYNRLPLS | 0.37 0.36 0.34 0.25 0.27 0.50 | 2/18 (3.18)
MMSQVTGLGMRHRNNVA | QTSTREP | QQYDRLPLV | 1.14 1.36 1.32 1.02 1.41 1.43 | 2/18 (2.51)
MISQVMNTLTRHGNNVA | DLQERED | QQYFRLPLS | 1.46 1.18 1.11 0.41 1.09 0.94 | 0/18
MISQLMNLGQFAINSVA | QAEDRNA | QQYDRLPLA | n.d. n.d. n.d. n.d. n.d. n.d. | 0/18
MISQLMNMGQFAINSVA | QASIRNN | QQYDRLPLA | 1.04 0.33 0.02 -0.09 0.52 0.88 | 3/18 (2.44)
KIGMTLNTLMHTKNNVA | DLVMREH | QQYHRLPLS | 0.82 0.75 0.63 0.53 0.71 1.01 | 0/18
MLSQMWALGQKVKNSVA | QASMRFN | QQYDRLPLV | 2.09 1.61 3.18 3.02 1.66 n.d. | 1/18 (2.56)
MISQMYNMGQFAINSVA | QASERNE | QQYDRLPLI | 1.26 1.34 1.41 1.07 1.15 1.88 | 2/18 (2.32)
KVSEFMRGLMMRKDSIA | DNNTRFN | QQYDRLPLS | n.d. n.d. n.d. n.d. n.d. n.d. | 0/18
MLSQMTGLGMKASNSVA | QASMRFE | QQYHRLPLI | 2.13 0.63 1.02 1.74 1.32 0.98 | 1/18 (1.97)
TLYGLSMSMSKNKNSVA | EMTTREK | QQYDRLPLI | 0.50 0.70 0.45 0.54 0.64 0.45 | 1/18 (1.90)
MISQLYNMGTFAINSVA | QASQRNA | QQYDRLPLI | n.d. n.d. n.d. n.d. n.d. n.d. | 0/18
TIGGTLMYGYRNRSNVA | EVSQRLN | QQYDRLPLV | n.d. 1.48 n.d. n.d. n.d. n.d. | 0/18
MMSQVTGMGQRHRNNVA | QTSEREP | QQYDRLPLV | 0.97 0.89 0.36 0.42 0.72 1.61 | 0/18
TISGMSNAASSKHNSVA | NVTMRPD | QQYHRLPLS | 1.05 0.36 0.74 0.75 0.64 1.24 | 2/18 (2.98)
KIGMTLNMMMHTKNNVA | DLVTREN | QQYHRLPLS | -0.11 0.56 0.73 0.63 0.15 0.57 | 0/18
KLTMITGLEKVQGQNVA | EMETREK | QQYNRLPLS | 0.88 n.d. 1.53 1.07 1.21 1.64 | 0/18
KLGYNTGQESFRKDNIA | DVRDREE | QQYHRLPLS | 0.85 0.70 0.32 0.55 0.67 0.66 | 0/18
TISQLMNMGSFAINSVA | QASIRNS | QQYDRLPLI | n.d. n.d. n.d. n.d. n.d. n.d. | 0/18
KLSMVTGHMSMSRNNVA | EMETREN | QQYDRLPLS | 1.01 0.85 0.37 0.51 0.51 0.45 | 0/18
NIYQAMHTLMQNKDNVA | DVTNRTK | QQYFRLPLS | 0.56 0.26 0.37 0.23 0.06 0.52 | 2/18 (2.67)
MLSMVTEGMARKHSSVA | DNSTRES | QQYDRLPLS | n.d. n.d. n.d. n.d. 1.36 n.d. | 0/18
MMSQVTGQGMRHRNNVA | QTSTREY | QQYDRLPLI | 0.92 1.00 0.82 1.18 1.36 1.12 | 1/18 (1.77)
MIYGAHMELGRAANSIA | DNVTRYD | QQYERLPLS | 2.78 2.68 1.87 1.63 1.95 1.33 | 1/18 (2.34)
MLSQMWALGMKVKNSVA | QASTRFN | QQYERLPLI | 0.61 1.17 1.59 1.37 1.34 1.02 | 0/18
TIGGTLMVGMRNRSNVA | EVSERLN | QQYDRLPLI | 2.56 2.63 1.35 2.51 1.78 1.86 | 1/18 (3.72)
IVSQLMLWGMHVKNSIA | EAVTRIN | QQYDRLPLI | n.d. n.d. n.d. n.d. n.d. n.d. | 0/18
HLSQMSGVESVKHNSVA | ENSTREE | QQYDRLPLT | 2.57 2.66 2.08 1.94 1.84 2.45 | 2/18 (2.99)
HLGLATMLEEYVRNSVA | NNSTREQ | QQYDRLPLS | n.d. n.d. n.d. n.d. n.d. n.d. | 0/18
KISQMTRVGSTKGNSIA | EEVTRAK | QQYHRLPLA | 1.33 1.00 1.76 1.66 2.44 1.33 | 0/18

The first 3 entries again:

CDR-L1,CDR-L2,CDR-L3,log10 Kd (nM) by replicate,empty controls
IVSQLMLWGMHAKNSIA,EAQTRYN,QQYDRLPLM,n.d. n.d. n.d. n.d. n.d. n.d.,0/18
TISQMTSLFSQSINNVA,EVSMRES,QQYDRLPLA,1.40 1.08 1.38 1.93 1.01 0.95,1/18 (3.19)
KVSEFMRGLMMRKDSIA,DNNTRSN,QQYDRLPLS,1.57 1.58 1.49 1.06 1.53 1.36,0/18

As a blank, each scFv also met three strains without target: over all light chain designs, 4% of these pairings were detected, typically at 2.64 and seldom below 1.59. Also given: how often the same scFv was detected with the empty control strains, with their mean in brackets. The range of this assay differs from that of the first round, and the authors advise against merging the two. The authors averaged sequences with at least three values out of six and counted those with two or fewer as poor binders.